Parameters: species or system mice
Conditions: mouse, in vivo, iv
Method: At 15 min post injection, the animals were anesthetized under 2% isoflurane and subjected to microPET/CT scans. Uptakes (%ID g-1) of major organs were calculated and reported as mean ± SD. Reconstruction of microPET images was performed with 3D OPMAP algorithm. 13.2 MicroPET/CT imaging with [18F]FTP-HSA Healthy mice received intravenous injection of [18F]FTP-HSA (3.70 MBq). Anesthetization was conducted with 2.5% isoflurane during preparation and 1.5% during scans. 60 min dynamic microPET/CT scans were acquired by an Inveon microPET/CT (Siemens, Germany). PET images reconstruction was performed with 3D OPMAP algorithm. Uptakes (%ID g-1) of major organs were calculated and reported as mean ± SD. 13.3 MicroPET/CT imaging with [ 18F]FTP-5F7 The MDA-MB -453 tumor bearing mice received an intravenous injection of [18F]FTP-5F7 (4.11 MBq). At 60 min post injection, the animals were anesthetized under 2% isoflurane and subjected to microPET/CT scans. Uptakes (%ID g-1) of major organs were calculated and reported as mean ± SD. Reconstruction of PET images was performed with 3D OPMAP algorithm. […]

Substance: [^18F]FTP-HSA: human serum albumin labeled via [^18F]FTP-NHS
- radioactivity in the skeleton: no apparent radioactivity

— PMC9830440, “Simplified one-pot ^18F-labeling of biomolecules with in situ generated fluorothiophosphate synthons in high molar activity” (Theranostics, 2023)
